Laboratory results: US12576087B2, “Aryloxypiperidine pyrazole compounds as indoleamine 2,3-dioxygenase inhibitors” (Merck Sharp & Dohme LLC, priority 2018, dated 2026)
Where a name gives a salt, the structure may show the parent alone.

Chains of the proteins cited; added tags and fusions are not shown.
UniProt P14902, whole entry: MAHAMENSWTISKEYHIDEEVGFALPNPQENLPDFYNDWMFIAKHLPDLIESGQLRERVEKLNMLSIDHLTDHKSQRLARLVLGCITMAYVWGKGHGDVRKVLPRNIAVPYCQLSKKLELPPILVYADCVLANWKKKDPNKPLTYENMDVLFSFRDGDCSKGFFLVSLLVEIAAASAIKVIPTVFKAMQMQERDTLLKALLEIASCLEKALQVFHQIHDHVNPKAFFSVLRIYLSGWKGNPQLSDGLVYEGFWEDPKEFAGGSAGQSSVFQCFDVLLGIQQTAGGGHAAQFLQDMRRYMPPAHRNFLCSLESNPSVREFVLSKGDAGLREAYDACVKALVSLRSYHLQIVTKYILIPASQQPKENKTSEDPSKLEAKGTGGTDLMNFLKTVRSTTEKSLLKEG

biological target: IDO1 (Homo sapiens, UniProt P14902); experiment: IDO1 Cellular Assay in HeLa Cells Stimulated with IFNγ; assay type: cell-based; conditions: HeLa cells stimulated with IFNγ 100 ng/mL, about 48 hours

EC50	SMILES
1.09 nM	C[C@@H]1CN(C(=O)c2nn(CC(=O)N3CCC(Oc4cc(F)ccc4Br)CC3)c3c2CCC3)C[C@H](C)O1 [Example 91, 1-[4-(2-bromo-5-fluorophenoxy)piperidin-1-yl]-2-{3-[(2R,6S)-2,6-dimethylmorpholine-4-carbonyl]-5,6-dihydrocyclopenta[c]pyrazol-1(4H)-yl}ethan-1-one]
21 nM	CCOC(=O)c1nn(CC(=O)N2CC[C@@H](Oc3ncccc3C(F)(F)F)C[C@H]2C)c2c1[C@@H]1C[C@@H]1C2 [Example 13, (3bR,4aR)-ethyl 1-(2-((2R,4R)-2-methyl-4-((3-(trifluoromethyl)pyridin-2-yl)oxy)piperidin-1-yl)-2-oxoethyl)-3b,4,4a,5-tetrahydro-1H-cyclopropa[3,4]cyclopenta[1,2-c]pyrazole-3-carboxylate]
11.7 nM	Cc1cc(OC2CCN(C(=O)Cn3nc(C(=O)N4C[C@@H](C)O[C@@H](C)C4)c4c3CCC4)CC2)ccc1Cl [Example 141, 1-[4-(4-chloro-3-methylphenoxy)piperidin-1-yl]-2-{3-[(2R,6S)-2,6-dimethylmorpholine-4-carbonyl]-5,6-dihydrocyclopenta[c]pyrazol-1(4H)-yl}ethan-1-one]
1.53 nM	Cc1ccc(Cl)c(OC2CCN(C(=O)Cn3nc(C(=O)N4C[C@@H](C)O[C@@H](C)C4)c4c3CCC4)CC2)c1 [Example 93, 1-[4-(2-chloro-5-methylphenoxy)piperidin-1-yl]-2-{3-[(2R,6S)-2,6-dimethylmorpholine-4-carbonyl]-5,6-dihydrocyclopenta[c]pyrazol-1(4H)-yl}ethan-1-one]
27.6 nM	C[C@@H]1CN(C(=O)c2nn(CC(=O)N3CCC(Oc4cc(F)ccc4F)CC3)c3c2CCC3)C[C@H](C)O1 [Example 149, 1-[4-(2,5-difluorophenoxy)piperidin-1-yl]-2-{3-[(2R,6S)-2,6-dimethylmorpholine-4-carbonyl]-5,6-dihydrocyclopenta[c]pyrazol-1(4H)-yl}ethan-1-one]
73.8 nM	O=C(CO)N1CCN(C(=O)c2nn(CC(=O)N3CCC(Oc4ccccc4)C4CC43)c3c2[C@@H]2C[C@@H]2C3)CC1 (single isomer, unassigned) [Example 172]
1.62 nM	Cc1ccccc1OC1CCN(C(=O)Cn2nc(C(=O)N3CCC(OCCO)CC3)c3c2CCC3)CC1 [Example 19, 2-(3-(4-(2-hydroxyethoxy)piperidine-1-carbonyl)-5,6-dihydrocyclopenta[c]pyrazol-1(4H)-yl)-1-(4-(o-tolyloxy)piperidin-1-yl)ethanone]
270 nM	C[C@@H]1CN(C(=O)c2nn(CC(=O)N3CCC(OCc4ccccc4)C(F)(F)C3)c3c2CCC3)C[C@H](C)O1 (stereo partly drawn) [Example 120, 1-[4-(benzyloxy)-3,3-difluoropiperidin-1-yl]-2-{3-[(2R,6S)-2,6-dimethylmorpholine-4-carbonyl]-5,6-dihydrocyclopenta[c]pyrazol-1(4H)-yl}ethan-1-one]
370 nM	C[C@@H]1CN(C(=O)c2nn(CC(=O)N3CCC(Oc4ccc5ccncc5c4)CC3)c3c2CCC3)C[C@H](C)O1 [Example 164, 2-{3-[(2R,6S)-2,6-dimethylmorpholine-4-carbonyl]-5,6-dihydrocyclopenta[c]pyrazol-1(4H)-yl}-1-{4-[(isoquinolin-7-yl)oxy]piperidin-1-yl}ethan-1-one]
8.19 nM	Cc1cccnc1OC1CCN(C(=O)Cn2nc(C(=O)N3CCC(O)CC3)c3c2CCCC3)CC1 [Example 181, 2-(3-(4-Hydroxypiperidine-1-carbonyl)-4,5,6,7-tetrahydro-1H-indazol-1-yl)-1-(4-((3-methylpyridin-2-yl)oxy)piperidin-1-yl)ethanone]
1.11 nM	Cc1ccccc1OC1CCN(C(=O)Cn2nc(C(=O)N3CC[C@H](O)C[C@@H]3C)c3c2CCCC3)CC1 [Example 17, 2-(3-((2S,4S)-4-hydroxy-2-methylpiperidine-1-carbonyl)-4,5,6,7-tetrahydro-1H-indazol-1-yl)-1-(4-(o-tolyloxy)piperidin-1-yl)ethanone]
1.83 nM	Cc1ccccc1OC1CCN(C(=O)Cn2nc(C(=O)N3CCC(O)(C(F)F)CC3)c3c2CCCC3)CC1 [Example 22, 2-(3-(4-(difluoromethyl)-4-hydroxypiperidine-1-carbonyl)-4,5,6,7-tetrahydro-1H-indazol-1-yl)-1-(4-(o-tolyloxy)piperidin-1-yl)ethanone]
83.3 nM	C[C@@H]1C[C@H](Oc2ncccc2F)CCN1C(=O)Cn1nc(C(=O)N2CCC(OCCO)CC2)c2c1C[C@H]1C[C@@H]21 [Example 61, 1-((2R,4R)-4-((3-fluoropyridin-2-yl)oxy)-2-methylpiperidin-1-yl)-2-((3bR,4aR)-3-(4-(2-hydroxyethoxy)piperidine-1-carbonyl)-3b,4,4a,5-tetrahydro-1H-cyclopropa[3,4]cyclopenta[1,2-c]pyrazol-1-yl)ethanone, TFA]
42.8 nM	C[C@@H]1CN(C(=O)c2nn(CC(=O)N3CCC(Oc4ccc(Cl)cc4F)CC3)c3c2CCC3)C[C@H](C)O1 [Example 154, 1-[4-(4-chloro-2-fluorophenoxy)piperidin-1-yl]-2-{3-[(2R,6S)-2,6-dimethylmorpholine-4-carbonyl]-5,6-dihydrocyclopenta[c]pyrazol-1(4H)-yl}ethan-1-one]
11.5 nM	O=C(Cn1nc(C(=O)N2CCC(F)(CO)CC2)c2c1CCCC2)N1CCC(Oc2cccc(Cl)c2)CC1 [Example 41, 1-(4-(3-chlorophenoxy)piperidin-1-yl)-2-(3-(4-fluoro-4-(hydroxymethyl)piperidine-1-carbonyl)-4,5,6,7-tetrahydro-1H-indazol-1-yl)ethanone]
8.76 nM	Cc1ccccc1OC1CCN(C(=O)Cn2nc(C(=O)N3CC[C@H](O)[C@H](F)C3)c3c2CCC3)CC1 [Example 39, 2-(3-((3R,4S)-3-fluoro-4-hydroxypiperidine-1-carbonyl)-5,6-dihydrocyclopenta[c]pyrazol-1(4H)-yl)-1-(4-(o-tolyloxy)piperidin-1-yl)ethanone]
20.8 nM	C[C@H]1C[C@@H](Oc2ncccc2Cl)CCN1C(=O)Cn1nc(C(=O)N2CCC(O)CC2)c2c1C[C@H]1C[C@@H]21 [Example 55, 1-((2S,4S)-4-((3-chloropyridin-2-yl)oxy)-2-methylpiperidin-1-yl)-2-((3bR,4aR)-3-(4-hydroxypiperidine-1-carbonyl)-3b,4,4a,5-tetrahydro-1H-cyclopropa[3,4]cyclopenta[1,2-c]pyrazol-1-yl)ethanone]
125 nM	COc1ccccc1CC1CCN(C(=O)Cn2nc(C(=O)N3C[C@@H](C)O[C@@H](C)C3)c3c2CCC3)CC1 [Example 108, 2-{3-[(2R,6S)-2,6-dimethylmorpholine-4-carbonyl]-5,6-dihydrocyclopenta[c]pyrazol-1(4H)-yl}-1-{4-[(2-methoxyphenyl)methyl]piperidin-1-yl}ethan-1-one]
22.6 nM	C[C@@H]1CN(C(=O)c2nn(CC(=O)N3CCC(Oc4ccc(Cl)cc4Cl)CC3)c3c2CCC3)C[C@H](C)O1 [Example 146, 1-[4-(2,4-dichlorophenoxy)piperidin-1-yl]-2-{3-[(2R,6S)-2,6-dimethylmorpholine-4-carbonyl]-5,6-dihydrocyclopenta[c]pyrazol-1(4H)-yl}ethan-1-one]
51.4 nM	CCOC(=O)c1nn(CC(=O)N2CCC(Oc3ccccc3C(F)(F)F)CC2)c2c1CCCC2 [Example 59, ethyl 1-(2-oxo-2-(4-(2-(trifluoromethyl)phenoxy)piperidin-1-yl)ethyl)-4,5,6,7-tetrahydro-1H-indazole-3-carboxylate]
261 nM	CC(C)c1ccccc1OC1CCN(C(=O)Cn2nc(C(=O)N3C[C@@H](C)O[C@@H](C)C3)c3c2CCC3)CC1 [Example 113, 2-{3-[(2R,6S)-2,6-dimethylmorpholine-4-carbonyl]-5,6-dihydrocyclopenta[c]pyrazol-1(4H)-yl}-1-{4-[2-(propan-2-yl)phenoxy]piperidin-1-yl}ethan-1-one]
39.4 nM	C[C@@H]1CN(C(=O)c2nn(CC(=O)N3CCC(Cc4ccccc4)CC3)c3c2CCC3)C[C@H](C)O1 [Example 119, 1-(4-benzylpiperidin-1-yl)-2-{3-[(2R,6S)-2,6-dimethylmorpholine-4-carbonyl]-5,6-dihydrocyclopenta[c]pyrazol-1(4H)-yl}ethan-1-one]
107 nM	C[C@H]1C[C@H](Oc2ncccc2Cl)CCN1C(=O)Cn1nc(C(=O)N2CCC(OCCO)CC2)c2c1CCC2 [Example 66, 1-((2S,4R)-4-((3-chloropyridin-2-yl)oxy)-2-methylpiperidin-1-yl)-2-(3-(4-(2-hydroxyethoxy)piperidine-1-carbonyl)-5,6-dihydrocyclopenta[c]pyrazol-1(4H)-yl)ethanone, TFA]
7.03 nM	C[C@@H]1CN(C(=O)c2nn(CC(=O)N3CCC(Oc4ccc(F)cc4Cl)CC3)c3c2CCC3)C[C@H](C)O1 [Example 117, 1-[4-(2-chloro-4-fluorophenoxy)piperidin-1-yl]-2-{3-[(2R,6S)-2,6-dimethylmorpholine-4-carbonyl]-5,6-dihydrocyclopenta[c]pyrazol-1(4H)-yl}ethan-1-one]
4.52 nM	Cc1ccccc1OC1CCN(C(=O)Cn2nc(C(=O)N3CCC(O)(CF)CC3)c3c2CCC3)CC1 [Example 35, 2-(3-(4-(fluoromethyl)-4-hydroxypiperidine-1-carbonyl)-5,6-dihydrocyclopenta[c]pyrazol-1(4H)-yl)-1-(4-(o-tolyloxy)piperidin-1-yl)ethanone]
180 nM	C[C@@H]1CN(C(=O)c2nn(CC(=O)N3CCC(Oc4ccc(C#N)cc4)CC3)c3c2CCC3)C[C@H](C)O1 [Example 112, 4-{[1-({3-[(2R,6S)-2,6-dimethylmorpholine-4-carbonyl]-5,6-dihydrocyclopenta[c]pyrazol-1(4H)-yl}acetyl)piperidin-4-yl]oxy}benzonitrile]
292 nM	Cc1ccccc1OC1CN(C(=O)Cn2nc(C(=O)N3C[C@@H](C)O[C@@H](C)C3)c3c2CCC3)C1 [Example 114, 2-{3-[(2R,6S)-2,6-dimethylmorpholine-4-carbonyl]-5,6-dihydrocyclopenta[c]pyrazol-1(4H)-yl}-1-[3-(2-methylphenoxy)azetidin-1-yl]ethan-1-one]
3.54 nM	Cc1ccccc1OC1CCN(C(=O)Cn2nc(C(=O)N3CCC(O)CC3)c3c2CCC3)CC1 [Example 33, 2-(3-(4-hydroxypiperidine-1-carbonyl)-5,6-dihydrocyclopenta[c]pyrazol-1(4H)-yl)-1-(4-(o-tolyloxy)piperidin-1-yl)ethanone]
